Results from patent US20060148016A1.

Key:
[1] = molecular target: streptavidin (Perkin Elmer Life Sciences; also as streptavidin-coated 96 well plates, Innotrac Diagnostics) (UniProt P22629); experiment: multiwell plate assay (Example 4): Eu-loaded BCCP-ferritin particles on streptavidin-coated wells, europium inside ferritin detected; control with 0.001 mM soluble biotin
[2] = molecular target: streptavidin (Perkin Elmer Life Sciences; also as streptavidin-coated 96 well plates, Innotrac Diagnostics) (UniProt P22629); experiment: multiwell plate assay (Example 4) with Eu-labelled streptavidin as label; reference is ferritin particles without binding molecule

- fold signal without biotin as compared to control with excess soluble biotin [1]: 163 fold
- fold signal as compared to particles produced with pET-26(+)rHuLFt [2]: 326 fold
Substance: Ferritin based particles expressing BCCP on their surface (BCCP-Human ferritin light chain fusion protein, plasmid pBccpHFI) (from UniProt P0ABD8 70-156; P02792 2-175)
